Legend:
[1] = FAERS analysis of reported rhabdomyolysis cases per suspect drug; conditions: for (%) of total rhabdomyolysis cases / Number of Rhabdomyolysis Cases / Number of Rhabdomyolysis Cases (n = 6583): FAERS 2004 to 31 March 2020; for (%) of total rhabdomyolysis cases: of 27,140 cases; for Number of Rhabdomyolysis Cases: total 27,140 rhabdomyolysis cases, some cases with more than one suspected drug; for (%) of monotherapy rhabdomyolysis cases: of 6583 cases; for Number of Rhabdomyolysis Cases (n = 6583): suspected drug reported as a single drug used (monotherapy)
L6 cells = assay: Acute metabolic switch assay (cellular ATP content, glucose vs galactose media) in L6 differentiated myotubes
Method: They were then seeded into collagen-coated wells (50 µg/mL in 0.02 M of acetic acid) at a density of 16,000 cells/100 μL/well (96 well plates) and 10,000 cells/100 μL/well (XF 96-well cell culture microplates). The cells were next incubated for 24 h in complete growth medium to promote adherence, after which the growth medium was removed and the cells washed twice with 1× HBSS. The L6 myoblasts were then cultured in differentiation medium consisting of high-glucose DMEM (25 mM) supplemented with L-glutamine (4 mM), sodium pyruvate (1 mM), HEPES (5 mM), and horse serum (2% v/v). Fresh differentiation medium was provided every 48 h for 7 days.
On the day of the assay, the media on the differentiated myotubes were replaced with either serum-free high-glucose (DMEM, 25 mM of glucose, 4 mM of L-glutamine, 1 mM of sodium pyruvate, and 5 mM of HEPES) or serum-free galactose (DMEM, 10 mM of galactose, 6 mM of L-glutamine, 1 mM of sodium pyruvate, and 5 mM of HEPES) media (100 µL) for 2 h (37 °C, 5% CO2). […]
The cellular ATP content was measured using a bioluminescence assay kit, alongside the concomitant measurement of protein using a bicinchoninic acid (BCA) assay kit to normalise ATP data to the total protein. […] The ATPase luminescence signal was measured immediately using a plate reader (Varioskan, Thermo Scientific, Schaumburg, IL USA).

Compound: Cc1cc2c(s1)Nc1ccccc1N=C2N1CCN(C)CC1 [Olanzapine]
- (%) of total rhabdomyolysis cases [1]: 2.4%
- Number of Rhabdomyolysis Cases [1]: 648
- (%) of monotherapy rhabdomyolysis cases [1]: 3.9%
- Number of Rhabdomyolysis Cases (n = 6583) [1]: 258

Compound: CC(C)C[C@H](CN)CC(=O)O [Pregabalin]
- ROR (reported odds ratio) ([1]; rhabdomyolysis with suspected drug vs all other drugs in FAERS): 0.2
- IC50-ATPglu/IC50-ATPgal (L6 cells): >2.6 (0.0049)
- Mitotoxicity classification in acute metabolic switch assay (L6 cells): containing a mitochondrial liability

Compound: Cc1nc2n(c(=O)c1CCN1CCC(c3noc4cc(F)ccc34)CC1)CCCC2 [Risperidone]
- (%) of total rhabdomyolysis cases [1]: 2.4%
- Number of Rhabdomyolysis Cases [1]: 654
- (%) of monotherapy rhabdomyolysis cases [1]: 1.8%
- Number of Rhabdomyolysis Cases (n = 6583) [1]: 121

From PMC10216605, “Developing In Vitro Models to Define the Role of Direct Mitochondrial Toxicity in Frequently Reported Drug-Induced Rhabdomyolysis” (Biomedicines, 2023)
